The target in this experiment is human DAT (Homo sapiens, UniProt Q01959). As to conditions: hDAT-transfected cells, 5 hrs. incubation.

Sequences of proteins named here, by UniProt entry; tags and fusion partners are left off.
UniProt Q01959, whole entry: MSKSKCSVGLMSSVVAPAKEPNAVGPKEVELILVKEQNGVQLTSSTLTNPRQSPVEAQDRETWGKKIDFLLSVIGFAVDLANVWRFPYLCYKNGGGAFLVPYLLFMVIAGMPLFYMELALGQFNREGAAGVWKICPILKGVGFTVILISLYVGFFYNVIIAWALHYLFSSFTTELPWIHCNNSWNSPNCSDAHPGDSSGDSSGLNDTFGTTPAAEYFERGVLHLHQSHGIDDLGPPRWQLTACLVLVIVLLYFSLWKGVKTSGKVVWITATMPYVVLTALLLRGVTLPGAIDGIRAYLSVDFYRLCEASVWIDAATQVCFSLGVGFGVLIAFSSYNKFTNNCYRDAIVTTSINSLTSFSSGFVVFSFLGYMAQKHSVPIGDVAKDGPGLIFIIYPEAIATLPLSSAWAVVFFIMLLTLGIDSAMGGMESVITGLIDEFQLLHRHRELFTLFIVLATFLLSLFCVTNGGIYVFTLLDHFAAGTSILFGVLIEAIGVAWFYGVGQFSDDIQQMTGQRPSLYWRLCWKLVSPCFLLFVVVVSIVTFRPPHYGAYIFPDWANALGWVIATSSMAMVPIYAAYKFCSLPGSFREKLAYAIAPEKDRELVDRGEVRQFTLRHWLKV

As to Dopamine gluconamine [Compound #2], the “competition of 3H-dopamine uptake” value was “Competition of ^3H-dopamine uptake was observed”.

(Values after US8252752B2 (priority 2000, dated 2012).)
